The values that follow are results of earlier work, collected in patent US6630120B1, “Agents to increase the uptake of pharmaceuticals and diagnostic substances into solid tumors” (priority 1999, dated 2003).

Protein sequences, listed by entry. Tags and fused reporters are not part of them. Residues count along the entry.
UniProt P12821, 30-1306, species assumed: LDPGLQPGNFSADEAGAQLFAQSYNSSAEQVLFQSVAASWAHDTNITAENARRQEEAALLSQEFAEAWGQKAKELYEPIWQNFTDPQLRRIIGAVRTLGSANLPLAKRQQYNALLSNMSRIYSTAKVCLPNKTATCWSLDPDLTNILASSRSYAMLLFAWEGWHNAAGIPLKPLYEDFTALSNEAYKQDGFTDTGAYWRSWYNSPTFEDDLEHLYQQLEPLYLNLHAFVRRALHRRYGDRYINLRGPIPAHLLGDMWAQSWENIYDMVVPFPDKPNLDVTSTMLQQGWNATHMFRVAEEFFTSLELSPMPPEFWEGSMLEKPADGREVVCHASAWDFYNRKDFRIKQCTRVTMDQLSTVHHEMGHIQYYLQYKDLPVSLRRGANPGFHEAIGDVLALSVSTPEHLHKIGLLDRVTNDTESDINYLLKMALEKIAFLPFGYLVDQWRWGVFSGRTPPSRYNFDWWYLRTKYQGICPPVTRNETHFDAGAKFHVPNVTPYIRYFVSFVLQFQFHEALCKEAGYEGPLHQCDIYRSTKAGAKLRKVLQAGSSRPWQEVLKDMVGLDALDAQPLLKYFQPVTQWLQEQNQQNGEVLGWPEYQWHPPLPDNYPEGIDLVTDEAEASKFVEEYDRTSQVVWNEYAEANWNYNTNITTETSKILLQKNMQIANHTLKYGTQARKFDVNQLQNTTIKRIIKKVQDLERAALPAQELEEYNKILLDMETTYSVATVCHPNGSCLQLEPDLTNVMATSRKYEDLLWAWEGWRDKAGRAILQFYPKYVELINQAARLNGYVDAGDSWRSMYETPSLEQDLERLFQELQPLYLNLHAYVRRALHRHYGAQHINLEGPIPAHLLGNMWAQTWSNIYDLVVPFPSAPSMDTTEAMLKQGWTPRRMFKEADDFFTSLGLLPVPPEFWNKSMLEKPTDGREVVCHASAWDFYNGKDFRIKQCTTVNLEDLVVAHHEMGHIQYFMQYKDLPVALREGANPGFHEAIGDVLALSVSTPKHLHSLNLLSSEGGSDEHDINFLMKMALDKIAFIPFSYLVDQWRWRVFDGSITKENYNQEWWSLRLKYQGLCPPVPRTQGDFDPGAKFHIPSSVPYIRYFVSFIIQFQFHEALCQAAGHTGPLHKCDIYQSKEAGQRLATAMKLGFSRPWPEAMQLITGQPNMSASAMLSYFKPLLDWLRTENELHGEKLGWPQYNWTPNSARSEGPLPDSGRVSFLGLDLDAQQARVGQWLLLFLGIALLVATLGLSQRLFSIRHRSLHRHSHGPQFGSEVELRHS

The data set addresses angiotensin converting enzyme (ACE) (Homo sapiens, UniProt P12821). Particulars: general statement, no method given; cited from earlier work.

SMILES strings stand for the structures.

`NC(N)=NCCC[C@H](NC(=O)[C@H](Cc1ccccc1)NC(=O)[C@@H]1CCCN1C(=O)[C@H](CO)NC(=O)[C@H](Cc1ccccc1)NC(=O)CNC(=O)[C@@H]1CCCN1C(=O)[C@@H]1CCCN1C(=O)[C@@H](N)CCCN=C(N)N)C(=O)O` [bradykinin, Arginine-Proline-Proline-Glycine-Phenylalanine-Serine-Proline-Phenylalanine-Arginine, reference compound]: the “degradation by angiotensin converting enzyme (ACE)” value was “significantly degraded”.
